Molecules are shown by their SMILES.

The chains behind the UniProt entries cited, without tags or fusion partners. Residues count along the entry.
UniProt P47871, 26-477 limits assumed: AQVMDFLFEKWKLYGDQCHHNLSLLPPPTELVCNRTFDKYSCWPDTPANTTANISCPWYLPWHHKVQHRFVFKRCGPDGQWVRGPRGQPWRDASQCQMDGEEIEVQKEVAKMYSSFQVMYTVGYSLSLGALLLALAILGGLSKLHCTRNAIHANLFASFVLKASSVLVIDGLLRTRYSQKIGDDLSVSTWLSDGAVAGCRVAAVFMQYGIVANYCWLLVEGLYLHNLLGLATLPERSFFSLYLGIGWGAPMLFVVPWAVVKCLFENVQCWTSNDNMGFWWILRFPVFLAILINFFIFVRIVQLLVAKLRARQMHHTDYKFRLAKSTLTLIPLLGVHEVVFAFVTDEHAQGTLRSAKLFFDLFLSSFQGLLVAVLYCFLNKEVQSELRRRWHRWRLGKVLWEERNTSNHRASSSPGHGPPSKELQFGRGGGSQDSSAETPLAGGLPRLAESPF

These results are taken from patent US8445538B2, “Glucagon receptor antagonist compounds” (Merck Sharp & Dohme Corp., priority 2008, dated 2013).

The target of the assay is human glucagon receptor (Homo sapiens, UniProt P47871). In words: Glucagon Receptor Binding Assay (125I-glucagon, SPA, CHO cell membranes). The settings on record: 125I-Glucagon binding to membranes of CHO cells expressing cloned human glucagon receptor; more active isomer of indicated compounds. Here is the method: Glucagon Receptor Binding Assay
A stable CHO (Chinese hamster ovary) cell line expressing cloned human glucagon receptor was maintained as described (Chicchi, et. al. J Biol Chem 272, 7765-9 (1997); Cascieri, et. al. J Biol Chem 274, 8694-7 (1999)). To determine antagonistic binding affinity of compounds, 0.001-0.003 mg of cell membranes from these cells were pre-incubated with 0.100 mg WGA-coated PVT SPA beads (Amersham) for 20 minutes at room temperature in 25 μL of a buffer containing 50 mM Tris-HCl (pH 7.5), 5 mM MgCl2, 2 mM EDTA, 0.1% BSA and 3% glycerol in Costar 384 well plates with clear bottoms (#3706). Next, 25 μL of ^125I-Glucagon (New England Nuclear, Mass.) (1×10^−14 mol per well) and either 1 μL solutions of test compounds or 0.001 mM unlabeled glucagon or DMSO were added and mixed. After 4-12 hours incubation at room temperature, the radioactivity bound to the cell membranes was determined in a radioactive emission detection counter (Wallac-Microbeta). Data were analyzed using the Data Analyzer software program of Merck & Co., Inc. The IC50 values were calculated using non-linear regression analysis assuming single-site competition.

The molecule `CCCC(c1ccc(C(=O)NCCC(=O)O)cc1)C(c1ccc(Cl)cc1)c1ccc(Cl)c2ccccc12` (stereo not shown) yielded an IC50 of 1.8 nM.
